Values of other authors as cited in US6699477B2, “EBV CTL epitopes” (The Council of the Queensland Institute of Medical Research, priority 1996, dated 2004).

Test system: HLA
Conditions: Table 4; cited from earlier work

In the case of RKCCRAKFKQLLQHYR, the “HLA Rest.” value is listed as “HLA Cw6”.
